According to paper PMC8342319, “Predicting blood-to-plasma concentration ratios of drugs from chemical structures and volumes of distribution in humans” (Molecular Diversity, 2021):

Columns and labels:
[1] = human; cited from earlier work
[2] = system: plasma protein; conditions: cited from earlier work
[3] = human

Question: With Ascorbic acid [reference compound] as the substance, how does the “Rb_Human (blood-to-plasma concentration ratio)” value [1] read?
Answer: Its value is 0.82.

Question: Which “fp_Human (free fraction in plasma)” value ([2]; human, collected value, median if multiple values were reported, ref: Table S1) does the source give for Maraviroc here?
Answer: The value was 0.250.

Question: With Buprenorphine as the substance, how does the “in vivo MRT_(hr)_Human” value [3] read?
Answer: Its value is 4.298 h.

Question: With Tenoxicam as the substance, how does the fp_Human [2] read?
Answer: The fp_Human was 0.010.
